Biological target: CDK2 (human) (UniProt P24941)
Assay: Enzyme Assay

Compound | IC50 [nM]
CC(=O)N(C)c1ccc(N/C=C2\C(=O)Nc3ccc4ncsc4c32)cc1 | 30
CCC1(c2ccc(N/C=C3\C(=O)Nc4ccc5ncsc5c43)cc2)CCC(=O)NC1=O (configuration not stated) | 30

Source: the Kinase Knowledgebase extract (Sharma et al. 2016)
